One assay deals with T1, L858R/T790M EGFR (Homo sapiens, UniProt P00533, L858R/T790M).
T1 construct: purchased Sigma-Aldrich SRP0242
In words: ADP-Glo kinase assay, double-mutant EGFR. Format: biochemical. The conditions noted are these: read-out: IC50 kinase inhibition, L858R/T790M EGFR, mean ± SEM (n = 3). A general note: ADP-Glo first removes unused ATP, then detects ADP through luciferase.

In the next assay the target is T2, wild-type EGFR (Homo sapiens, UniProt P00533).
T2 construct: purchased Sigma-Aldrich SRP0239
In words: ADP-Glo kinase assay, wild-type EGFR. Format: biochemical. The conditions noted are these: read-out: IC50 kinase inhibition, Wild-Type EGFR, mean ± SEM (n = 3).

A value given as a limit tells only on which side of the number the result lay.

For the substance asiaticoside, the IC50 on L858R/T790M EGFR and on wild-type EGFR was greater than 80 nM each time.

The record behind these values is paper PMC12563520, “Asiatic Acid from Centella asiatica as a Potent EGFR Tyrosine Kinase Inhibitor with Anticancer Activity in NSCLC Cells Harboring Wild-Type and T790M-Mutated EGFR” (Biomolecules, 2025).
